Results as given in PubChem BioAssay AID504905 (The Scripps Research Institute Molecular Screening Center, 2011).
The list shows a part of the results, in another mix than the full data. Active and inactive are the calls of the source. Cut-off read from the data, not from the text of the source: active = activation above about 17%; inactive = the rest.

The chains behind the UniProt entries cited, without tags or fusion partners.
UniProt P47898, whole entry: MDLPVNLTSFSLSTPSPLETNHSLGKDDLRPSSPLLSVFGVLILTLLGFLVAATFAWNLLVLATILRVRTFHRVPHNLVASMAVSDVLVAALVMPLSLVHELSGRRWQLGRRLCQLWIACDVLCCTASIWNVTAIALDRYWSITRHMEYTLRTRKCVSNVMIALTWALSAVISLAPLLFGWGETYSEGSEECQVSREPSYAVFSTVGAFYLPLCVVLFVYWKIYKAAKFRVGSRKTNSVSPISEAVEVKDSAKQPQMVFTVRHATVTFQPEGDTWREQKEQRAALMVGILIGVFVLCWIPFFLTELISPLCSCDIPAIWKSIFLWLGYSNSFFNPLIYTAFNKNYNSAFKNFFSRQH

Molecular target: 5-hydroxytryptamine receptor 5A (Homo sapiens) (UniProt P47898)
Assay: activation of human 5-HT5A receptor – cell-based, luminescence, counter-screen for OPRM1-OPRD1 heterodimer agonist project (AID 504905);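 note: 0% = vehicle-treated cells and 100% = reference agonist response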
Conditions: HTR5A agonist counterscreen, at 9.3 µM, hits give high values

With `CN(C)C1(CNC(=O)c2ccc(Cl)c(S(N)(=O)=O)c2)CCCCC1` the activation was inactive: 5.09%.
